Measurements published in PMC12196476, “New Nitrogen-, Oxygen-, and Sulfur-Containing Heterocyclic Compounds as Anti-Colon Cancer Agents: Synthesis, Multitargeted Evaluations, Molecular Docking Simulations and ADMET Predictions” (Pharmaceuticals, 2025).

Target: recombinant human LDHA protein (Homo sapiens, UniProt P00338)
Experiment: In vitro LDHA inhibitory assay (NADH consumption)
Assay type: biochemical
Details: three independent experiments; read-out: Mean IC50 µM ± SD, LDHA
Excerpt: The LDHA inhibitory efficiencies were investigated on Spectramax M2 spectrofluorometer via measuring the amounts of the consumed NADH^40 using an NAD^+/NADH quantification kit. […]
S3.2.3. In vitro LDHA inhibitory assay.
The LDHA inhibitory activity of the test compounds was investigated using Spectramax M2
spectrofluorometer by measuring the amounts of the consumed NADH [42] employing
NAD+/NADH quantification kit. Briefly, the assay medium containing various concentrations of
each test compound (50, 100, 200 and 300 μg/mL) was incubated in assay medium composed of 20
mM of HEPES-K+ buffer (pH 7.2), 20 μM of NADH, 2 mM of pyruvate and 10 ng of purified
recombinant human LDHA protein for 10 min utes. The activity of LDHA would result in reduction
of pyruvate into lactate with concomitant oxidation of NADH to NAD +. Since NADH (reduced
LDHA, could be inversely quantified by monitoring the change in the intensity of the fluorescence
at 340 nm over a 10-minute period. The rate of the fluorescence change (slope) in treated samples
was compared to that obtained from negative control experiment (100 % enzymatic activity) to
determine the percentage of inhibition. The IC50 value—defined as the compound concentration
required to reduce the luminescence by 50%, compared to untreated control wells—was
determined for each compound from the corresponding dose–response curve generated by […]

IC50: 140 ± 7.64 µM
Structure (SMILES): NC(=O)C(=O)O [SO, sodium oxamate, reference compound]
